B1: Y2B8: Yttrium-[90]-labeled 2B8-MX--DTPA (conjugate, chains of the INN, looked up)
heavy: QAYLQQSGAELVRPGASVKMSCKASGYTFTSYNMHWVKQTPRQGLEWIGAIYPGNGDTSYNQKFKGKATLTVDKSSSTAYMQLSSLTSEDSAVYFCARVVYYSNSYWYFDVWGTGTTVTVSAPSVYPLAPVCGDTTGSSVTLGCLVKGYFPEPVTLTWNSGSLSSGVHTFPAVLQSDLYTLSSSVTVTSSTWPSQSITCNVAHPASSTKVDKKIEPRGPTIKPCPPCKCPAPNLLGGPSVFIFPPKIKDVLMISLSPIVTCVVVDVSEDDPDVQISWFVNNVEVHTAQTQTHREDYNSTLRVVSALPIQHQDWMSGKEFKCKVNNKDLPAPIERTISKPKGSVRAPQVYVLPPPEEEMTKKQVTLTCMVTDFMPEDIYVEWTNNGKTELNYKNTEPVLDSDGSYFMYSKLRVEKKNWVERNSYSCSVVHEGLHNHHTTKSFSR
light: QIVLSQSPAILSASPGEKVTMTCRASSSVSYMHWYQQKPGSSPKPWIYAPSNLASGVPARFSGSGSGTSYSLTISRVEAEDAATYYCQQWSFNPPTFGAGTKLELKRADAAPTVFIFPPSDEQLKSGTASVVCLLNNFYPREAKVQWKVDNALQSGNSQESVTEQDSKDSTYSLSSTLTLSKADYEKHKVYACEVTHQGLSSPVTKSFN
modifications: yttrium-90, MX-DTPA chelator (tiuxetan)
notes: Yttrium-[90]-labeled 2B8-MX--DTPA
B2: 2B8: murine anti-CD20 monoclonal antibody; hybridoma ATCC HB 11388 (antibody, chains of the INN, looked up)
heavy: B1 heavy
light: B1 light

Columns and labels:
[1] = Biodistribution of yttrium-[90]-labeled 2B8-MX--DTPA in BALB/c mice; type: in vivo
Experimental: Using a similar approach, 2B8-MX--DTPA was also radiolabeled with yttrium-[90] and its biological distribution evaluated in BALB/c mice over a 72-hour time period. Following purification by HPLC size exclusion chromatography, four groups of five mice each were injected intravenously with approximately 1 μCi of clinically-formulated conjugate (specific activity:12.2 μCi/mg); groups were subsequently sacrificed at 1, 24, 48 and 72 hours and their organs and tissues analyzed as described above. Radioactivity associated with each tissue specimen was determined by measuring bremstrahlung energy with a gamma scintillation counter. Activity values were subsequently expressed as percent injected dose per gram tissue or percent injected dose per organ. While organs and other tissues were rinsed repeatedly to remove superficial blood, the organs were not perfused. Thus, organ activity values were not discounted for the activity contribution represented by internally associated blood.
The biodistribution of yttrium-[90]-labeled conjugate, having a specific activity of 12.2 mCi/mg antibody, was evaluated in BALB/c mice. Radioincorporations of >90% were obtained and the radiolabeled antibody was purified by HPLC. Tissue deposition of radioactivity was evaluated in the major organs, and the skin, muscle, bone, and urine and feces over 72 hours and expressed as percent injected dose/g tissue. […] Importantly, the radioactivity associated with the bone ranged from 4.4% of the injected dose per gram bone at 1 hour to 3.2% at 72 hours.

Ramos tumor cells = test: Mouse xenographic model with B cell lymphoblastic tumor (Ramos tumor cells); type: in vivo, nu/nu mice; settings: Y2B8 100 μCi; FIG. 11
[2] = system: CD20 positive SB target cells; test: Antibody dependent cellular cytotoxicity effector assay, CD20 positive cells; type: cell-based; settings: human peripheral lymphocytes, effector:target 100:1, 4 hr, 37° C., FIG. 8

Molecule | radioactivity associated with the bone ([1]; 1 hour) | radioactivity associated with the blood ([1]; 1 hour, about 1 μCi i.v.) | radioactivity associated with the blood ([1]; 72 hours) | radioactivity associated with the bone ([1]; 72 hours) | release of free radiometal from the conjugate ([1]; during the 72 hour study) | radioactivity associated with tail, heart, kidney, muscle and spleen ([1]; throughout the experiment (1-72 hours)) [%] | tumoricidal effect (tumor size, length x width) (Ramos tumor cells) | antibody dependent cell mediated lysis [2]
B1 | 4.4 % of the injected dose per gram bone | approximately 39.2 % injected dose per gram | roughly 15.4 % injected dose per gram | 3.2 % of the injected dose per gram bone | little free radiometal was released | ≤ 10.2 | tumoricidal effects | 
B2 |  |  |  |  |  |  |  | statistically insignificant effect

Source: patent US5776456A, “Therapeutic application of chimeric and radiolabeled antibodies to human B lymphocyte restricted differentiation antigen for treatment of B cell lymphoma” (IDEC Pharmaceuticals Corporation, priority 1995, dated 1998)
